# Earlier results as cited in publication PMC11506537, “An 11-mer Synthetic Peptide Suppressing Aggregation of Aβ25-35 and Resolving Its Aggregated Form Improves Test Performance in an Aβ25-35-Induced Alzheimer’s Mouse Model” (Biomolecules, 2024).
# Test system: patients with AD
# Details: no reference at this sentence; cited from earlier work
# Text: Alzheimer’s disease (AD) is the most common age-related neurodegenerative disorder worldwide. Amyloid-β (Aβ) 42, which is produced by the cleavage of amyloid precursor protein (APP) by β- or γ-secretases, is considered to cause AD [1, 2, 3]. […] Thus, the current main strategy is to develop Aβ antibodies and vaccines aimed at inhibiting Aβ aggregation. Recently, aducanumab, an antibody drug that inhibits Aβ aggregation, has been approved by the U.S. Food and Drug Administration. […] Lecanemab, the latest Aβ ant ...
substance,measurement,value
Aducanumab: antibody drug that inhibits Aβ aggregation,effect on clinical manifestation of mild AD,inhibit the clinical manifestation of mild AD
